Measurements reported in PubChem BioAssay AID1706 (The Scripps Research Institute Molecular Screening Center, 2009).
Only a part is listed here, and it is no random draw. Some results for these compounds are left out of this collection, so the calls shown say nothing about other tests. The source made the active and inactive calls. No stated cut-off is given here; in the data, active means inhibition above about 12%; inactive means the rest.

These compounds were tested against Replicase polyprotein 1ab (Severe acute respiratory syndrome coronavirus) (UniProt P0C6X7) (assay: SARS-CoV 3CLpro protease inhibitors, primary screen, biochemical, quenched FRET (AID 1706)). Details: recombinant SARS-CoV 3CLpro, quenched FRET peptide cleavage; at 6 µM; hits give high values.

SMILES | inhibition
O=C(OC1CN2CCC1CC2)C(CO)(c1ccccc1)c1ccccc1 (centres undefined) | inactive: -2.42%
COc1ccc(Br)c(C(=O)NCC2(N3CCCCC3)CCCCC2)c1 | inactive: 5.1%
CC(C)Oc1ccc(C(=O)NCC2(N(C)C)CCCCC2)cc1 | inactive: 3.58%
CN(C)c1cccc(C(=O)NCC2(N(C)C)CCCCC2)c1 | inactive: 4.6%
CN(C)C1(CNC(=O)c2ccc(Br)cc2)CCCCC1 | inactive: -1.82%
COc1cc(C(=O)NCC2(N(C)C)CCCCC2)c([N+](=O)[O-])cc1OC | inactive: 4.3%
COc1cccc(C(=O)NCC2(N3CCCCC3)CCCCC2)c1 | inactive: 2.17%
COc1ccc(Cl)cc1C(=O)NCC1(N(C)C)CCCCC1 | inactive: 1.66%
O=C(NCC1(N2CCCCC2)CCCCC1)c1cccc(Cl)c1 | inactive: 2.35%
Cc1ccccc1C(=O)NCC1(N2CCCCC2)CCCCC1 | inactive: -2.44%
CN(C)c1ccc(C(=O)NCC2(N(C)C)CCCCC2)cc1 | inactive: 2.59%
CN(C)C1CCCC1OC(=O)C(O)(c1ccccc1)c1ccccc1 (centres undefined) | inactive: -1.33%
C=CCN1CCN(CCOC(=O)C(O)(c2ccccc2)c2ccccc2)CC1 | inactive: 2.02%
O=C(NCC1(N2CCCCC2)CCCCC1)c1cc(F)c(F)cc1Cl | inactive: 3.71%
COc1ccc(C(=O)NCC2(N(C)C)CCCCC2)cc1 | inactive: 1.38%
CCN1CCCC(OC(=O)C2(O)c3ccccc3C=Cc3ccccc32)C1 (centres undefined) | inactive: -2.52%
Cc1cc(C(=O)NCC2(N3CCCCC3)CCCCC2)ccc1[N+](=O)[O-] | inactive: -0.96%
O=C(NCC1(N2CCCCC2)CCCCC1)c1cccc(Br)c1 | inactive: 1.34%
O=C(NCC1(N2CCCCC2)CCCCC1)c1cc([N+](=O)[O-])ccc1Cl | inactive: 4.47%
CN1[C@@H]2CC[C@H]1CC(OC(=O)C(O)(c1ccccc1)c1ccccc1)C2 (some centres undefined) | inactive: -1.93%
CCN(CC)CC(C)C(C)OC(=O)C(O)(c1ccccc1)c1ccccc1 (centres undefined) | inactive: 1.89%
COc1cc(SC)ccc1C(=O)NCC1(N(C)C)CCCCC1 | inactive: 2.17%
CC(C)N1C(=O)CC2(CCN(CCOC(=O)C(O)(c3ccccc3)c3ccccc3)CC2)C1=O | inactive: 4.51%
Cc1ccc(C(=O)NCC2(N3CCCCC3)CCCCC2)cc1 | inactive: -2.14%
